Laboratory results taken from patent publication USRE50282E1, “Specific modification of antibody with IgG-binding peptide” (KAGOSHIMA UNIVERSITY, priority 2015, dated 2025).

The chains behind the UniProt entries cited, without tags or fusion partners. Residues count along the entry.
UniProt P24071, 22-287: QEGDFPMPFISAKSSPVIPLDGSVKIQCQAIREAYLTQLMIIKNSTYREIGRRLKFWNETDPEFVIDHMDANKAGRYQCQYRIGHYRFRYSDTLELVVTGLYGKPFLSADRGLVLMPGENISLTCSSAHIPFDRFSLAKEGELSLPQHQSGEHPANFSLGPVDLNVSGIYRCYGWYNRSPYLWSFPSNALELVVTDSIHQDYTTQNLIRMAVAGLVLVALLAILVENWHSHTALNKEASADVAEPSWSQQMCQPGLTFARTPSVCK

Tests used:
IgA receptor = target: T1, IgA receptor (Homo sapiens, UniProt P24071); assay: FACS antigen binding analysis on differentiated HL60 cells highly expressing IgA receptor (Example 10); assay type: cell-based; details: primary antibody 200 nM; PE-labeled anti-human IgG polyclonal antibody as secondary
T1 construct: HL60 cells highly expressing an IgA receptor; endogenous in cells; host or cells: HL60 (JCRB), differentiated for 6 days with 1.3% DMSO

SK-BR3 cells = assay: Cell growth inhibition, Cell Counting Kit-8, 72 hours (Examples 11 and 12); assay type: cell-based; details: antibody alone
Procedure: (§1) After culture at 37° C. for 24 hours in a 5% CO2 incubator, 100 μL of a medium containing each concentration of the antibody-drug conjugate (ADC) prepared as described above was added to each well, and the cells were further cultured at 37° C. for 72 hours in a CO2 incubator. 10 μL of Cell Counting Kit-8 (Dojindo Laboratories) was added to each well. After incubation at 37° C. for 2 hours in a CO2 incubator, the absorbance at 450 nm was measured using a plate reader.
as §1, with “(ADC)” for “(ADC) prepared as described above”

binding to HL60 cells (fluorescence shift) (IgA receptor): slight fluorescence shift
Substance: anti-HER2 human antibody: anti-HER2 humanized IgG1 antibody (Chugai Pharmaceutical Co., Ltd.)
cell growth inhibition (SK-BR3 cells): no such cell growth inhibition was seen
